Each structure is given as a SMILES string.

The chains behind the UniProt entries cited, without tags or fusion partners.
UniProt P51681, whole entry: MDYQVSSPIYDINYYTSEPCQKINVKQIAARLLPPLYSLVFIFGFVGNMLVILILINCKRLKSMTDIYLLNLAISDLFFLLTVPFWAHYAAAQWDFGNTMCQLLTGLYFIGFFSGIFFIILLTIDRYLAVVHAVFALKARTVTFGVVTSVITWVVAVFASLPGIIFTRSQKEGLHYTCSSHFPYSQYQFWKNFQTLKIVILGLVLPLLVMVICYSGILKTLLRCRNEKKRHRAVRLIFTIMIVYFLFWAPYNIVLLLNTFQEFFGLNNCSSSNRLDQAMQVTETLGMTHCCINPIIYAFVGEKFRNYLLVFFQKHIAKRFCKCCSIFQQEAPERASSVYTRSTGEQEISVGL

Here are results for four compounds from ChEMBL document CHEMBL1811891 (Bioorg Med Chem, 2011).

The target in test [1] is C-C chemokine receptor type 5 (Homo sapiens, UniProt P51681). The test can be described thus: Antagonist activity at human CCR5 expressed in CHO cells assessed as inhibition of MIP-1alpha-induced calcium mobilization. It is filed as functional, cell-based.
The nature of test [2]: Antagonist activity against human CCR5 receptor assessed as inhibition of HIV1 gp120-induced cell-cell fusion between viral envolop protein expressing human HEK293 cells to human CD4/CCR5 receptor expressing HOS cells after 24 hrs by luciferase reporter gene assay. (Reporter assays use an easily measured gene product as a stand-in for the process of interest.)

The term IC50 denotes the concentration that inhibits the measured activity by half. As for `CCCN1C(=O)[C@@H]([C@H](O)C2CCCCC2)NC(=O)C12CCN(Cc1ccc(Oc3ccc(C(=O)O)cc3)cc1)CC2`, in test [1], the half-inhibitory concentration (IC50) amounted to 30 nM.
Turning to `CCCCN1C(=O)[C@@H]([C@H](O)C2CCCCC2)NC(=O)C12CCN(Cc1ccc(Oc3ccccc3)cc1)CC2.Cl`, in test [2], the 50% inhibitory concentration (IC50) is 7.8 nM.
On to `CCCCN1C(=O)[C@@H]([C@H](O)C2CCCCC2)NC(=O)C12CCN(Cc1ccc(Oc3ccc(NS(C)(=O)=O)cc3)cc1)CC2.Cl`, for which the concentration for half-maximal inhibition (IC50) in test [1] came out at 26 nM.
The same measure, in the same setting: then `CNC(=O)c1ccc(Oc2ccc(CN3CCC4(CC3)C(=O)N[C@H]([C@H](O)C3CCCCC3)C(=O)N4C)cc2)cc1`, with 59 nM.
